For one experiment, the system named is Prunus dulcis. The experiment is described as follows: Inhibition of almond beta-glucosidase at 100 uM using p-nitrophenyl glycosides as substrate measured for 125 secs by spectrophotometry analysis relative to control. The conditions noted are these: time 125.0 sec.
The test system of another experiment is Saccharomyces cerevisiae. The experiment can be described thus: Inhibition of Saccharomyces cerevisiae alpha-glucosidase at 100 uM using p-nitrophenyl glycosides as substrate measured for 125 secs by spectrophotometry analysis relative to control. Particulars: time 125.0 sec.

The record followed here is ChEMBL document CHEMBL4665828, “Glucosylpolyphenols as Inhibitors of Aβ-Induced Fyn Kinase Activation and Tau Phosphorylation: Synthesis, Membrane Permeability, and Exploratory Target Assessment within the Scope of Type 2 Diabetes and Alzheimer's Disease” (J Med Chem, 2020).

For orientation: inhibition means the relative decrease from the control value, in per cent. A lower inhibition goes with a response near the control.

Turning to `O=C(Oc1ccc([C@@H]2O[C@H](CO)[C@@H](O)[C@H](O)[C@H]2O)cc1OC(=O)c1ccccc1)c1ccccc1`, the inhibition in the experiment on Prunus dulcis turned out to be 17%.

As to `OC[C@H]1O[C@@H](c2c(O)ccc3ccccc23)[C@H](O)[C@@H](O)[C@@H]1O`, in the experiment on Saccharomyces cerevisiae, the inhibition is 12%.
